The record followed here is ChEMBL document CHEMBL6127109, “mARC1 Is the Main Contributor to Metabolic Reduction of N-Hydroxyurea” (J Med Chem, 2024).

As usually defined, the Vmax is the top rate of the reaction or transport when substrate is in excess.

Substrate in data set [1]: NC(=O)NO
Kind of data set: Binding affinity to human recombinant mARC1 extracted from Escherichia coli assessed as Vmax by Michaelis-menten based analysis.

Substrate in data set [2]: NC(=O)NO
In words: Binding affinity to human recombinant mARC2 extracted from Escherichia coli assessed as Vmax by Michaelis-menten based analysis.

B1: Mitochondrial amidoxime-reducing component 1 (Homo sapiens), Q5VT66 (protein)
chain: MGAAGSSALARFVLLAQSRPGWLGVAALGLTAVALGAVAWRRAWPTRRRRLLQQVGTVAQLWIYPVKSCKGVPVSEAECTAMGLRSGNLRDRFWLVINQEGNMVTARQEPRLVLISLTCDGDTLTLSAAYTKDLLLPIKTPTTNAVHKCRVHGLEIEGRDCGEATAQWITSFLKSQPYRLVHFEPHMRPRRPHQIADLFRPKDQIAYSDTSPFLILSEASLADLNSRLEKKVKATNFRPNIVISGCDVYAEDSWDELLIGDVELKRVMACSRCILTTVDPDTGVMSRKEPLETLKSYRQCDPSERKLYGKSPLFGQYFVLENPGTIKVGDPVYLLGQ
Take B1: the Vmax in data set [1] is 490 nmol/mg/min.

B2: Mitochondrial amidoxime reducing component 2 (Homo sapiens), Q969Z3 (protein)
chain: MGASSSSALARLGLPARPWPRWLGVAALGLAAVALGTVAWRRAWPRRRRRLQQVGTVAKLWIYPVKSCKGVPVSEAECTAMGLRSGNLRDRFWLVIKEDGHMVTARQEPRLVLISIIYENNCLIFRAPDMDQLVLPSKQPSSNKLHNCRIFGLDIKGRDCGNEAAKWFTNFLKTEAYRLVQFETNMKGRTSRKLLPTLDQNFQVAYPDYCPLLIMTDASLVDLNTRMEKKMKMENFRPNIVVTGCDAFEEDTWDELLIGSVEVKKVMACPRCILTTVDPDTGVIDRKQPLDTLKSYRLCDPSERELYKLSPLFGIYYSVEKIGSLRVGDPVYRMV
As to B2, the Vmax in data set [2] turned out to be 248 nmol/mg/min.
